Experimental data from patent US9783556B2, “Kinase inhibitors” (RESPIVERT LIMITED, priority 2012, dated 2017).

Sequences of proteins named here, by UniProt entry; tags and fusion partners are left off. Residues count along the entry.
UniProt P12931, 2-536 limits assumed: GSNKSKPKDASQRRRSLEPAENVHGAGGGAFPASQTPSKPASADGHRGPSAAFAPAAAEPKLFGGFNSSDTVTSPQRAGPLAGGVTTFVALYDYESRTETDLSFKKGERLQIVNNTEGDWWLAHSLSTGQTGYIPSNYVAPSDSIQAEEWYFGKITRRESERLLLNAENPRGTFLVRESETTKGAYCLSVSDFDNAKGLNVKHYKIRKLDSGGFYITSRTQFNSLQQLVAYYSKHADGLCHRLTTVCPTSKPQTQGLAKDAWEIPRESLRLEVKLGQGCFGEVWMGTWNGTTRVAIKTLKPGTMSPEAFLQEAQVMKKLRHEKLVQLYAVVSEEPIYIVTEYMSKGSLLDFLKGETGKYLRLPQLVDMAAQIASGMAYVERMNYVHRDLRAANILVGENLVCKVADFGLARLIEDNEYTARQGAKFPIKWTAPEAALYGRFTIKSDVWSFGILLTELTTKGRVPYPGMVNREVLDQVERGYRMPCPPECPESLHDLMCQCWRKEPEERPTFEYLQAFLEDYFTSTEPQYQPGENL
UniProt P49840, whole entry: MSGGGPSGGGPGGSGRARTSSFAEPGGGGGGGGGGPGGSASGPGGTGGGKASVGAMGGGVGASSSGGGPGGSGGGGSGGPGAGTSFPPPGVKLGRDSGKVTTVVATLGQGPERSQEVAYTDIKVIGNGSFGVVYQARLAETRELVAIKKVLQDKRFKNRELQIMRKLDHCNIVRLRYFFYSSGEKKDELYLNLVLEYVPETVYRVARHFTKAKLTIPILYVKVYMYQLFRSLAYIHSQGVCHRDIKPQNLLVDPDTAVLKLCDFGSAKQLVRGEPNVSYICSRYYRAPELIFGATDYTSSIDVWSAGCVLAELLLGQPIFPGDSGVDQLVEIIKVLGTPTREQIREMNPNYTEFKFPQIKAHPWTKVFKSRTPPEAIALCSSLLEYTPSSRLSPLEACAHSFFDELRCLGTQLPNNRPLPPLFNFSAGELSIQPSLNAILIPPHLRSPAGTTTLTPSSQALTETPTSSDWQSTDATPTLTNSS

How the values were obtained:
c-Src = c-Src (Homo sapiens (Human), UniProt P12931); experiment: c-Src enzyme inhibition (Z-LYTE FRET); assay type: biochemical; conditions: read-out: IC50 Values for Enzyme Inhibition c-Src
Description: (§1) The enzyme inhibitory activities of compounds disclosed herein are determined by FRET using synthetic peptides labelled with both donor and acceptor fluorophores (Z-LYTE, Invitrogen Ltd., Paisley, UK).
(§2) The inhibitory activities of compounds of the invention against c-Src and Syk enzymes (Invitrogen), are evaluated in a similar fashion to that described hereinabove. The relevant enzyme (3000 ng/mL or 2000 ng/mL respectively, 2.5 μL) is incubated with the test compound (either 4 μg/mL, 0.4 μg/mL, 0.04 μg/mL, or 0.004 μg/mL, 2.5 μL each) for 2 hr at RT. The FRET peptides (8 μM, 2.5 μL), and appropriate ATP solutions (2.5 μL, 800 μM for c-Src, and 60 μM ATP for Syk) are then added to the enzymes/compound mixtures and incubated for 1 hr. Development reagent (protease, 5 μL) is added for 1 hr prior to detection in a fluorescence microplate reader (Varioskan® Flash, ThermoFisher Scientific).
(§3) In all cases, the site-specific protease cleaves non-phosphorylated peptide only and eliminates the FRET signal. Phosphorylation levels of each reaction are calculated using the ratio of coumarin emission (donor) over fluorescein emission (acceptor), for which high ratios indicate high phosphorylation and low ratios indicate low phosphorylation levels. […]

Syk = Syk (Homo sapiens (Human), UniProt P43405); experiment: Syk enzyme inhibition (Z-LYTE FRET); assay type: biochemical; conditions: read-out: IC50 Values for Enzyme Inhibition Syk
Description: as §1, §2, §3

GSK 3α = GSK 3α (Homo sapiens (Human), UniProt P49840); experiment: GSK 3α enzyme inhibition (Z-LYTE FRET); conditions: read-out: IC50 Values for Enzyme Inhibition GSK3α
Description: as §1
The following two assay variants can be used for determination of GSK 3α inhibition.
The inhibitory activities of compounds of the invention against the GSK 3α enzyme isoform (Invitrogen), are evaluated by determining the level of activation/phosphorylation of the target peptide. The GSK3-α protein (500 ng/mL, 2.5 μL) is mixed with the test compound (2.5 μL at either 4 μg/mL, 0.4 μg/mL, 0.04 μg/mL, or 0.004 μg/mL) for 2 hr at RT. The FRET peptide (8 μM, 2.5 μL), which is a phosphorylation target for GSK3α, and ATP (40 μM, 2.5 μL) are then added to the enzyme/compound mixture and the resulting mixture incubated for 1 hr. Development reagent (protease, 5 μL) is added for 1 hr prior to detection in a fluorescence microplate reader (Varioskan® Flash, ThermoFisher Scientific).
as §3

d-U937 cells = experiment: LPS-induced TNFα/IL-8 release in d-U937 cells; assay type: cell-based, human; conditions: LPS-stimulated d-U937 cells
Description: U937 cells, a human monocytic cell line, are differentiated to macrophage-type cells by incubation with phorbol myristate acetate (PMA; 100 ng/mL) for 48 to 72 hr. Cells are pre-incubated with final concentrations of test compound for 2 hr and are then stimulated with 0.1 μg/mL of LPS (from E. Coli: O111:B4, Sigma) for 4 hr. The supernatant is collected for determination of TNFα and IL-8 concentrations by sandwich ELISA (Duo-set, R&D systems). The inhibition of TNFα production is calculated as a percentage of that achieved by 10 μg/mL of BIRB796 at each concentration of test compound by comparison against vehicle control. The relative 50% effective concentration (REC50) is determined from the resultant concentration-response curve. The inhibition of IL-8 production is calculated at each concentration of test compound by comparison with vehicle control. The 50% inhibitory concentration (IC50) is determined from the resultant concentration-response curve.

PBMCs [1] = experiment: LPS-induced TNFα/IL-8 release in PBMC cells; assay type: cell-based, human; conditions: read-out: IC50 Values for Inhibition of Cytokine Release PBMCs IL-8, LPS-stimulated PBMCs
Description: Peripheral blood mononuclear cells (PBMCs) from healthy subjects are separated from whole blood using a density gradient (Lymphoprep, Axis-Shield Healthcare). The PBMCs are seeded in 96 well plates and treated with compounds at the desired concentration for 2 hours before addition of 1 ng/mL LPS (Escherichia Coli 0111:B4 from Sigma Aldrich) for 24 hours under normal tissue culture conditions (37° C., 5% CO2). The supernatant is harvested for determination of IL-8 and TNFα concentrations by sandwich ELISA (Duo-set, R&D systems) and read on the fluorescence microplate reader (Varioskan® Flash, ThermoFisher Scientific). The concentration at 50% inhibition (IC50) of IL-8 and TNFα production is calculated from the dose response curve.

PBMCs [2] = experiment: IL-2 and IFN gamma release in CD3/CD28 stimulated PBMC cells; assay type: cell-based, human
Description: PBMCs from healthy subjects are separated from whole blood using a density gradient (Lymphoprep, Axis-Shield Healthcare). Cells are added to a 96 well plate pre-coated with a mixture of CD3/CD38 monoclonal antibodies (0.3 μg/mL eBioscience and 3 μg/mL BD Pharmingen respectively). Compound at the desired concentration is then added to the wells and the plate left for 3 days under normal tissue culture conditions. Supernatants are harvested and IL-2 and IFN gamma release determined by Sandwich ELISA (Duo-set, R&D System). The IC50 is determined from the dose response curve.

## C#Cc1cc(Nc2nccc(Oc3ccc(NC(=O)Nc4cc([Si](C)(C)C)nn4-c4ccc(C)cc4)c4ccccc34)n2)cc(C(=O)NCCN2CCOCC2)c1
c-Src
  IC50: 25 nM
Syk
  IC50: 65 nM
GSK 3α
  IC50: 12.8 µM
d-U937 cells; read-out: IC50 Values for Inhibition of Cytokine Release dU937 cells IL-8, IL-8
  IC50: 3.3 nM
d-U937 cells; read-out: IC50 Values for Inhibition of Cytokine Release dU937 cells TNFα, TNFα, method describes REC50 relative to BIRB796
  IC50: 0.5 nM
PBMCs [1]
  IC50: 1.7 nM
PBMCs [2]; read-out: IC50 Values for Inhibition of Cytokine Release PBMCs IFNγ, IFNγ
  IC50: 2.3 nM
PBMCs [2]; read-out: IC50 Values for Inhibition of Cytokine Release PBMCs IL-2, IL-2
  IC50: 94.8 nM

Read-outs that look alike come from different tables or passages of the source.
